The assay relates to NCl/ADR-RES. The experiment in a line: Effect of Pgp on drug sensitivity, Pgp overexpressing line (SRB assay). It is filed as cell-based, human. As to conditions: IC50 of Pgp overexpressing line divided by IC50 of parental line; cell SK-OV-3 MDR-1-6/6. A general note: The SRB assay estimates cell density from bound dye.

Regarding `COc1ccc(Sc2[nH]c3nc(N)nc(N)c3c2C)cc1OC`, the Rr entry is listed as “less than 1”.

(Values after patent US11111252B2, “Pyrimidine compounds and pyrimido indole compounds and methods of use” (Duquesne University of the Holy Spirit, priority 2014, dated 2021).)
